The molecules below were run against HPIV3 envelope glycoproteins (Human parainfluenza 3 virus, UniProt P06828) (assay: cell-based). Conditions: not given.
Parameters: species or system Human parainfluenza virus type 3

Chains of the proteins cited; added tags and fusions are not shown. Residues count along the entry.
UniProt P06828, 110-539 limits assumed: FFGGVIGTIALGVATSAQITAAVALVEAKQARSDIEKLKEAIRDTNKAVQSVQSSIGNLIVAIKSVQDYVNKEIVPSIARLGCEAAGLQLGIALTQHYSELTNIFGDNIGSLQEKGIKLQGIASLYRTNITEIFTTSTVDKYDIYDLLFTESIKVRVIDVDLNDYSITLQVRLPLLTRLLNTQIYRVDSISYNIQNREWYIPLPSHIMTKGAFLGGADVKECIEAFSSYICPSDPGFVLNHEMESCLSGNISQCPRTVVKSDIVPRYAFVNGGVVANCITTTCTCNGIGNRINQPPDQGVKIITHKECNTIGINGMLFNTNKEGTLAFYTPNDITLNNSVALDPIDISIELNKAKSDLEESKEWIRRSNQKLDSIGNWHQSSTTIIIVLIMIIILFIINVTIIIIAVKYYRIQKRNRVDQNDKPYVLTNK
UniProt P06828, 19-109 partner limits assumed: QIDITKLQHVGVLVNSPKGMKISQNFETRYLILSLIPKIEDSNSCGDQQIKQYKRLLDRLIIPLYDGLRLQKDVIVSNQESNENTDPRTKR

Row | SMILES | IC50 [nM]
1 | CC[C@H](C)[C@H](NC(=O)[C@H](CO)NC(=O)[C@H](CC(=O)O)NC(=O)[C@H](CC(C)C)NC(=O)[C@H](CCCCN)NC(=O)CNC(=O)[C@H](CC(N)=O)NC(=O)[C@H](CO)NC(=O)[C@H](CCCNC(=N)N)NC(=O)[C@H](CCCNC(=N)N)NC(=O)[C@@H](NC(=O)[C@H](Cc1c[nH]c2ccccc12)NC(=O)[C@H](CCC(=O)O)NC(=O)[C@H](CCCCN)NC(=O)[C@H](CO)NC(=O)[C@H](CCC(=O)O)NC(=O)[C@H](CCC(=O)O)NC(=O)[C@H](CC(C)C)NC(=O)[C@H](CC(=O)O)NC(=O)[C@H](CO)NC(=O)[C@H](CCCCN)NC(=O)[C@H](C)NC(=O)[C@H](CCCCN)NC(=O)[C@H](CC(N)=O)NC(=O)[C@H](CC(C)C)NC(=O)[C@@H](NC(=O)[C@@H](NC(=O)[C@H](CO)NC(=O)[C@@H](NC(=O)[C@H](CC(=O)O)NC(=O)[C@@H](NC(=O)[C@@H]1CCCN1C(=O)[C@H](CC(=O)O)NC(=O)[C@H](CC(C)C)NC(=O)[C@H](C)NC(=O)[C@@H](NC(C)=O)C(C)C)[C@@H](C)CC)[C@@H](C)CC)[C@@H](C)CC)C(C)C)[C@@H](C)CC)C(=O)NCC(=O)N[C@@H](CO)C(=O)NCC(=O)N[C@@H](CO)C(=O)NCC(=O)N[C@@H](CS)C(N)=O [VG] | > 1000

Same assay, conditions: read-out: IC90 nM, in vitro efficacy

Row | SMILES | IC90 [nM]
2 | CC[C@H](C)[C@H](NC(=O)[C@H](CO)NC(=O)[C@H](CC(=O)O)NC(=O)[C@H](CC(C)C)NC(=O)[C@H](CCCCN)NC(=O)CNC(=O)[C@H](CC(N)=O)NC(=O)[C@H](CO)NC(=O)[C@H](CCCNC(=N)N)NC(=O)[C@H](CCCNC(=N)N)NC(=O)[C@@H](NC(=O)[C@H](Cc1c[nH]c2ccccc12)NC(=O)[C@H](CCC(=O)O)NC(=O)[C@H](CCCCN)NC(=O)[C@H](CO)NC(=O)[C@H](CCC(=O)O)NC(=O)[C@H](CCC(=O)O)NC(=O)[C@H](CC(C)C)NC(=O)[C@H](CC(=O)O)NC(=O)[C@H](CO)NC(=O)[C@H](CCCCN)NC(=O)[C@H](C)NC(=O)[C@H](CCCCN)NC(=O)[C@H](CC(N)=O)NC(=O)[C@H](CC(C)C)NC(=O)[C@@H](NC(=O)[C@@H](NC(=O)[C@H](CO)NC(=O)[C@@H](NC(=O)[C@H](CC(=O)O)NC(=O)[C@@H](NC(=O)[C@@H]1CCCN1C(=O)[C@H](CC(=O)O)NC(=O)[C@H](CC(C)C)NC(=O)[C@H](C)NC(=O)[C@@H](NC(C)=O)C(C)C)[C@@H](C)CC)[C@@H](C)CC)[C@@H](C)CC)C(C)C)[C@@H](C)CC)C(=O)NCC(=O)N[C@@H](CO)C(=O)NCC(=O)N[C@@H](CO)C(=O)N[C@@H](CSCC(=O)NCCOCCOCCOCCOCCOCCOCCOCCOCCOCCOCCOCCOCCOCCOCCOCCOCCOCCOCCOCCOCCOCCOCCOCCOCCC(=O)O[C@H]1CC[C@@]2(C)C(=CC[C@H]3[C@@H]4CC[C@H]([C@H](C)CCCC(C)C)[C@@]4(C)CC[C@@H]32)C1)C(N)=O [VG-PEG24-chol] | 50
3 | CC[C@H](C)[C@H](NC(=O)[C@H](CO)NC(=O)[C@H](CC(=O)O)NC(=O)[C@H](CC(C)C)NC(=O)[C@@H](NC(=O)[C@H](CCCCN)NC(=O)[C@H](CC(N)=O)NC(=O)[C@H](CO)NC(=O)[C@H](CCCNC(=N)N)NC(=O)[C@H](CCCNC(=N)N)NC(=O)[C@@H](NC(=O)[C@H](Cc1c[nH]c2ccccc12)NC(=O)[C@H](CCC(=O)O)NC(=O)[C@H](CCCCN)NC(=O)[C@H](CO)NC(=O)[C@H](CCC(=O)O)NC(=O)[C@H](CCC(=O)O)NC(=O)[C@H](CC(C)C)NC(=O)[C@H](CC(=O)O)NC(=O)[C@H](CO)NC(=O)[C@H](CCCCN)NC(=O)[C@@H](NC(=O)[C@H](CCCCN)NC(=O)[C@H](CC(N)=O)NC(=O)[C@H](CC(C)C)NC(=O)[C@@H](NC(=O)[C@@H](NC(=O)[C@H](CO)NC(=O)[C@@H](NC(=O)[C@H](CC(=O)O)NC(=O)[C@@H](NC(=O)[C@@H]1CCCN1C(=O)[C@H](CC(=O)O)NC(=O)[C@H](CC(C)C)NC(=O)[C@H](C)NC(=O)[C@@H](NC(C)=O)C(C)C)[C@@H](C)CC)[C@@H](C)CC)[C@@H](C)CC)C(C)C)[C@@H](C)CC)[C@@H](C)CC)[C@@H](C)CC)C(=O)NCC(=O)N[C@@H](CO)C(=O)NCC(=O)N[C@@H](CO)C(=O)NCC(=O)N[C@@H](CSCC(=O)NCCOCCOCCOCCOCCOCCOCCOCCOCCOCCOCCOCCOCCOCCOCCOCCOCCOCCOCCOCCOCCOCCOCCOCCOCCC(=O)O[C@H]1CC[C@@]2(C)C(=CC[C@H]3[C@@H]4CC[C@H]([C@H](C)CCCC(C)C)[C@@]4(C)CC[C@@H]32)C1)C(N)=O [VIKI-PEG24-chol] | 3
4 | CC[C@H](C)[C@H](NC(=O)[C@H](CO)NC(=O)[C@H](CC(=O)O)NC(=O)[C@H](CC(C)C)NC(=O)[C@H](CCCCN)NC(=O)CNC(=O)[C@H](CC(N)=O)NC(=O)[C@H](CO)NC(=O)[C@H](CCCNC(=N)N)NC(=O)[C@H](CCCNC(=N)N)NC(=O)[C@@H](NC(=O)[C@H](Cc1c[nH]c2ccccc12)NC(=O)[C@H](CCC(=O)O)NC(=O)[C@H](CCCCN)NC(=O)[C@H](CO)NC(=O)[C@H](CCC(=O)O)NC(=O)[C@H](CCC(=O)O)NC(=O)[C@H](CC(C)C)NC(=O)[C@H](CC(=O)O)NC(=O)[C@H](CO)NC(=O)[C@H](CCCCN)NC(=O)[C@H](C)NC(=O)[C@H](CCCCN)NC(=O)[C@H](CC(N)=O)NC(=O)[C@H](CC(C)C)NC(=O)[C@@H](NC(=O)[C@@H](NC(=O)[C@H](CO)NC(=O)[C@@H](NC(=O)[C@H](CC(=O)O)NC(=O)[C@@H](NC(=O)[C@@H]1CCCN1C(=O)[C@H](CC(=O)O)NC(=O)[C@H](CC(C)C)NC(=O)[C@H](C)NC(=O)[C@@H](NC(C)=O)C(C)C)[C@@H](C)CC)[C@@H](C)CC)[C@@H](C)CC)C(C)C)[C@@H](C)CC)C(=O)NCC(=O)N[C@@H](CO)C(=O)NCC(=O)N[C@@H](CO)C(=O)N[C@@H](CSCC(=O)NCCOCCOCCOCCOCCC(=O)O[C@H]1CC[C@@]2(C)C(=CC[C@H]3[C@@H]4CC[C@H]([C@H](C)CCCC(C)C)[C@@]4(C)CC[C@@H]32)C1)C(N)=O [VG-PEG4-chol] | 100
5 | CC[C@H](C)[C@H](NC(=O)[C@H](CO)NC(=O)[C@H](CC(=O)O)NC(=O)[C@H](CC(C)C)NC(=O)[C@H](CCCCN)NC(=O)CNC(=O)[C@H](CC(N)=O)NC(=O)[C@H](CO)NC(=O)[C@H](CCCNC(=N)N)NC(=O)[C@H](CCCNC(=N)N)NC(=O)[C@@H](NC(=O)[C@H](Cc1c[nH]c2ccccc12)NC(=O)[C@H](CCC(=O)O)NC(=O)[C@H](CCCCN)NC(=O)[C@H](CO)NC(=O)[C@H](CCC(=O)O)NC(=O)[C@H](CCC(=O)O)NC(=O)[C@H](CC(C)C)NC(=O)[C@H](CC(=O)O)NC(=O)[C@H](CO)NC(=O)[C@H](CCCCN)NC(=O)[C@H](C)NC(=O)[C@H](CCCCN)NC(=O)[C@H](CC(N)=O)NC(=O)[C@H](CC(C)C)NC(=O)[C@@H](NC(=O)[C@@H](NC(=O)[C@H](CO)NC(=O)[C@@H](NC(=O)[C@H](CC(=O)O)NC(=O)[C@@H](NC(=O)[C@@H]1CCCN1C(=O)[C@H](CC(=O)O)NC(=O)[C@H](CC(C)C)NC(=O)[C@H](C)NC(=O)[C@@H](NC(C)=O)C(C)C)[C@@H](C)CC)[C@@H](C)CC)[C@@H](C)CC)C(C)C)[C@@H](C)CC)C(=O)NCC(=O)N[C@@H](CO)C(=O)NCC(=O)N[C@@H](CO)C(=O)NCC(=O)N[C@@H](CS)C(N)=O [VG] | > 1000
6 | CC[C@H](C)[C@H](NC(=O)[C@H](CO)NC(=O)[C@H](CC(=O)O)NC(=O)[C@H](CC(C)C)NC(=O)[C@@H](NC(=O)[C@H](CCCCN)NC(=O)[C@H](CC(N)=O)NC(=O)[C@H](CO)NC(=O)[C@H](CCCNC(=N)N)NC(=O)[C@H](CCCNC(=N)N)NC(=O)[C@@H](NC(=O)[C@H](Cc1c[nH]c2ccccc12)NC(=O)[C@H](CCC(=O)O)NC(=O)[C@H](CCCCN)NC(=O)[C@H](CO)NC(=O)[C@H](CCC(=O)O)NC(=O)[C@H](CCC(=O)O)NC(=O)[C@H](CC(C)C)NC(=O)[C@H](CC(=O)O)NC(=O)[C@H](CO)NC(=O)[C@H](CCCCN)NC(=O)[C@@H](NC(=O)[C@H](CCCCN)NC(=O)[C@H](CC(N)=O)NC(=O)[C@H](CC(C)C)NC(=O)[C@@H](NC(=O)[C@@H](NC(=O)[C@H](CO)NC(=O)[C@@H](NC(=O)[C@H](CC(=O)O)NC(=O)[C@@H](NC(=O)[C@@H]1CCCN1C(=O)[C@H](CC(=O)O)NC(=O)[C@H](CC(C)C)NC(=O)[C@H](C)NC(=O)[C@@H](NC(C)=O)C(C)C)[C@@H](C)CC)[C@@H](C)CC)[C@@H](C)CC)C(C)C)[C@@H](C)CC)[C@@H](C)CC)[C@@H](C)CC)C(=O)NCC(=O)N[C@@H](CO)C(=O)NCC(=O)N[C@@H](CO)C(=O)NCC(=O)N[C@@H](CSCC(=O)NCCOCCOCCOCCOCCC(=O)O[C@H]1CC[C@@]2(C)C(=CC[C@H]3[C@@H]4CC[C@H]([C@H](C)CCCC(C)(C)O)[C@@]4(C)CC[C@@H]32)C1)C(N)=O [VIKI-PEG4-25^OHchol] | > 1000
7 | CC[C@H](C)[C@H](NC(=O)[C@H](CO)NC(=O)[C@H](CC(=O)O)NC(=O)[C@H](CC(C)C)NC(=O)[C@@H](NC(=O)[C@H](CCCCN)NC(=O)[C@H](CC(N)=O)NC(=O)[C@H](CO)NC(=O)[C@H](CCCNC(=N)N)NC(=O)[C@H](CCCNC(=N)N)NC(=O)[C@@H](NC(=O)[C@H](Cc1c[nH]c2ccccc12)NC(=O)[C@H](CCC(=O)O)NC(=O)[C@H](CCCCN)NC(=O)[C@H](CO)NC(=O)[C@H](CCC(=O)O)NC(=O)[C@H](CCC(=O)O)NC(=O)[C@H](CC(C)C)NC(=O)[C@H](CCC(N)=O)NC(=O)[C@H](CO)NC(=O)[C@H](CCCCN)NC(=O)[C@@H](NC(=O)[C@H](CCCCN)NC(=O)[C@H](CC(N)=O)NC(=O)[C@H](CC(C)C)NC(=O)[C@@H](NC(=O)[C@@H](NC(=O)[C@H](CO)NC(=O)[C@@H](NC(=O)[C@H](CC(=O)O)NC(=O)[C@@H](NC(=O)[C@@H]1CCCN1C(=O)[C@H](CC(=O)O)NC(=O)[C@H](CC(C)C)NC(=O)[C@H](C)NC(=O)[C@@H](NC(C)=O)C(C)C)[C@@H](C)CC)[C@@H](C)CC)[C@@H](C)CC)C(C)C)[C@@H](C)CC)[C@@H](C)CC)[C@@H](C)CC)C(=O)NCC(=O)N[C@@H](CO)C(=O)NCC(=O)N[C@@H](CO)C(=O)NCC(=O)N[C@@H](CSCC(=O)NCCOCCOCCOCCOCCOCCOCCOCCOCCOCCOCCOCCOCCOCCOCCOCCOCCOCCOCCOCCOCCOCCOCCOCCOCCC(=O)O[C@H]1CC[C@@]2(C)C(=CC[C@H]3[C@@H]4CC[C@H]([C@H](C)CCCC(C)C)[C@@]4(C)CC[C@@H]32)C1)C(N)=O [VIQKI-PEG24-chol] | 1
8 | CC[C@H](C)[C@H](NC(=O)[C@H](CO)NC(=O)[C@H](CC(=O)O)NC(=O)[C@H](CC(C)C)NC(=O)[C@@H](NC(=O)[C@H](CCCCN)NC(=O)[C@H](CC(N)=O)NC(=O)[C@H](CO)NC(=O)[C@H](CCCNC(=N)N)NC(=O)[C@H](CCCNC(=N)N)NC(=O)[C@@H](NC(=O)[C@H](Cc1c[nH]c2ccccc12)NC(=O)[C@H](CCC(=O)O)NC(=O)[C@H](CCCCN)NC(=O)[C@H](CO)NC(=O)[C@H](CCC(=O)O)NC(=O)[C@H](CCC(=O)O)NC(=O)[C@H](CC(C)C)NC(=O)[C@H](CC(=O)O)NC(=O)[C@H](CO)NC(=O)[C@H](CCCCN)NC(=O)[C@@H](NC(=O)[C@H](CCCCN)NC(=O)[C@H](CC(N)=O)NC(=O)[C@H](CC(C)C)NC(=O)[C@@H](NC(=O)[C@@H](NC(=O)[C@H](CO)NC(=O)[C@@H](NC(=O)[C@H](CC(=O)O)NC(=O)[C@@H](NC(=O)[C@@H]1CCCN1C(=O)[C@H](CC(=O)O)NC(=O)[C@H](CC(C)C)NC(=O)[C@H](C)NC(=O)[C@@H](NC(C)=O)C(C)C)[C@@H](C)CC)[C@@H](C)CC)[C@@H](C)CC)C(C)C)[C@@H](C)CC)[C@@H](C)CC)[C@@H](C)CC)C(=O)NCC(=O)N[C@@H](CO)C(=O)NCC(=O)N[C@@H](CO)C(=O)NCC(=O)N[C@@H](CSCC(=O)NCCOCCOCCOCCOCCOCCOCCOCCOCCOCCOCCOCCOCCOCCOCCOCCOCCOCCOCCOCCOCCOCCOCCOCCOCCC(=O)Oc1c(C)c(C)c2c(c1C)CC[C@@](C)(CCC[C@H](C)CCC[C@H](C)CCCC(C)C)O2)C(N)=O [VIKI-PEG24-toc] | 80

— patent US10172961B2 (priority 2014, dated 2019)
